# Target: T1, human α3β4 receptors (Homo sapiens, UniProt P30926+P32297)
# Amino acid sequences for entries named in this document (tags omitted). Residues count along the entry.
# UniProt P30926, 22-498: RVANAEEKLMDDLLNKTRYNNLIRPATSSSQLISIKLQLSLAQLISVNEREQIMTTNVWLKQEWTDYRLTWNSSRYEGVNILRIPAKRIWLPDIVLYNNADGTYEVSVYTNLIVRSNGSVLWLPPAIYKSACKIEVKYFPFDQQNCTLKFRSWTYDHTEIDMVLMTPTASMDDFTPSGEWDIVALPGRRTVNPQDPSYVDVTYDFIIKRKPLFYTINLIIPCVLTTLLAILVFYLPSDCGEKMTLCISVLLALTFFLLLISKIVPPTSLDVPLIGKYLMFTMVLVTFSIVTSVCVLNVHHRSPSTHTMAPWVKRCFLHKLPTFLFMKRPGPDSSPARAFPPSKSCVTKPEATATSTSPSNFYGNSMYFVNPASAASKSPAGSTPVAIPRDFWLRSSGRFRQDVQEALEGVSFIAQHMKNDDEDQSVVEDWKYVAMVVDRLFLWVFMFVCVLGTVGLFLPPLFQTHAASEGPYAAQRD
# UniProt P32297, 32-505: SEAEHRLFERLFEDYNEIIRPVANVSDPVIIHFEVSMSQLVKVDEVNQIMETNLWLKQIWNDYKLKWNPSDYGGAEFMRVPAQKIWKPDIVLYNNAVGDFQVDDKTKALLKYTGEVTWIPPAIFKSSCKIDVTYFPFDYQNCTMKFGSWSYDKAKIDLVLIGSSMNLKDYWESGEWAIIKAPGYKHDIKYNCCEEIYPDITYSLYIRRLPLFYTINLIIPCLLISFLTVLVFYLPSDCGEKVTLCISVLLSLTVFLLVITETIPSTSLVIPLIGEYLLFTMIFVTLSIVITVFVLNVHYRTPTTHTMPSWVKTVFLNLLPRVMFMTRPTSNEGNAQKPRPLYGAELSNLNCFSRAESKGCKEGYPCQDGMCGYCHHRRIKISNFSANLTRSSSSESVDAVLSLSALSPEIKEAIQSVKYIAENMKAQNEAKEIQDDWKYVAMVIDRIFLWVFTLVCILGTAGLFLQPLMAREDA
# T1 construct: expressed in transfected cells; host or cells: Xenopus laevis oocytes injected with cRNA
# Experiment: Two-electrode voltage clamp, receptors expressed in Xenopus oocytes
# Format: cell-based
smiles,measurement,value
CN[C@]1(C)[C@H]2CC[C@H](C2)C1(C)C [exo-R-mecamylamine],"potency of inhibition, comparing the IC50 values across receptors",most potent
